Measured values taken from patent US20230270750A1, “CARBALDEHYDE OXIMES AS BUTYRYLCHOLINESTERASE REACTIVATORS” (published 2023).

Amino acid sequences for entries named in this document (tags omitted). Residues count along the entry.
UniProt P06276, 29-557 N45Q/N483Q/N509Q/N514Q limits assumed: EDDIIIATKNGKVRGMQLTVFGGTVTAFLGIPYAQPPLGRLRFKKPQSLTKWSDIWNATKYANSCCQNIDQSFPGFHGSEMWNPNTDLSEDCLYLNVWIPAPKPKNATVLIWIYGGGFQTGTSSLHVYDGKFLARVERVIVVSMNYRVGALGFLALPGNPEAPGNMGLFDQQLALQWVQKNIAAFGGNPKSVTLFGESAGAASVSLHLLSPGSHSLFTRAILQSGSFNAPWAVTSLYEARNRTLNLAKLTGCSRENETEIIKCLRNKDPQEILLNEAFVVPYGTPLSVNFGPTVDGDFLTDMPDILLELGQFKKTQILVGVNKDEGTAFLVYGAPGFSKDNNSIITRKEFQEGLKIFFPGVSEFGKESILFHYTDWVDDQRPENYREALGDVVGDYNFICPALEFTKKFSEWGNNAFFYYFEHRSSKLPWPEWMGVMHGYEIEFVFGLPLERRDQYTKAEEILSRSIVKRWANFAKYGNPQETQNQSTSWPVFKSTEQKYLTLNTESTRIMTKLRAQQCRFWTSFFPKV

Target: OP-inhibited hBChE (Homo sapiens, UniProt P06276, N45Q/N483Q/N509Q/N514Q)
Assay: Oxime reactivation of OP-inhibited hBChE (modified Ellman assay, BTCh)
[1] = Paraoxon-inhibited hBChE, Table 1
[2] = Paraoxon-inhibited hBChE, Table 5

Compound: O/N=C/c1nc(CCCCC[N+]23CCC(CC2)CC3)ccc1O
- Kd (VX-inhibited hBChE, Table 7): 23 µM
- kr (VX-inhibited hBChE, Table 7): 0.2 ± 0.01 min⁻¹
- kr2 (VX-inhibited hBChE, Table 7): 167 M⁻¹ s⁻¹

Compound: HI-6
- kr (POX-inhibited hBChE, Table 7): 0 min⁻¹
- kr2 (POX-inhibited hBChE, Table 7): 0 M⁻¹ s⁻¹
- KD [1]: ∅
- Kr [1]: ∅
- Kr2 [1]: ∅
- kr [2]: 0 min⁻¹
- kr2 [2]: 0 M⁻¹ s⁻¹
- Kd (Sarin-inhibited hBChE, Table 1): 409 µM
- Kr (Sarin-inhibited hBChE, Table 1): 0.3 ± 0.02 min⁻¹
- Kr2 (Sarin-inhibited hBChE, Table 1): 12 M⁻¹ s⁻¹
- Kd (Sarin-inhibited hBChE, Table 5): 409 µM
- kr (Sarin-inhibited hBChE, Table 5): 0.3 ± 0.02 min⁻¹
- kr2 (Sarin-inhibited hBChE, Table 5): 13 M⁻¹ s⁻¹
- Kd (Sarin-inhibited hBChE, Table 7): 409 µM
- kr (Sarin-inhibited hBChE, Table 7): 0.3 ± 0.02 min⁻¹
- kr2 (Sarin-inhibited hBChE, Table 7): 13 M⁻¹ s⁻¹
- Kd (VX-inhibited hBChE, Table 1): 307 µM
- Kr (VX-inhibited hBChE, Table 1): 0.03 ± 0.002 min⁻¹
- Kr2 (VX-inhibited hBChE, Table 1): 1.7 M⁻¹ s⁻¹
- Kd (VX-inhibited hBChE, Table 5): 307 µM
- kr (VX-inhibited hBChE, Table 5): 0.03 ± 0.002 min⁻¹
- kr2 (VX-inhibited hBChE, Table 5): 1.7 M⁻¹ s⁻¹
- Kd (VX-inhibited hBChE, Table 7): 307 µM
- kr (VX-inhibited hBChE, Table 7): 0.03 ± 0.002 min⁻¹
- kr2 (VX-inhibited hBChE, Table 7): 1.7 M⁻¹ s⁻¹
